# Reference: PubChem BioAssay AID435000 (NMMLSC, 2010)
# This is a selection; strong and weak results do not stand in their true shares. Calls of active or inactive are those of the source.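 The calls were made as follows: active = fluorescence response below 15%; inactive = the rest.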
# Test: yeast superoxide dye artefact check – S. cerevisiae BY4741, flow cytometry, artefact control for yeast caloric restriction mimetic project (AID 435000);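 also: percent of the mean fluorescence averaged over all compound wells on the plate; lower means stronger quenching of DHE signal or ROS scavenging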
# Conditions: S. cerevisiae BY4741, DHE fluorescence, at 10 µM, hits give low values
compound,measurement,value
O=C(OC1CN2CCC1CC2)c1ccccc1 (stereo unspecified),fluorescence response,inactive: 96.6%
